Values quoted from earlier work as cited in article PMC9698716, “From Serendipity to Rational Identification of the 5,6,7,8-Tetrahydrobenzo[4,5]thieno[2,3-d]pyrimidin-4(3H)-one Core as a New Chemotype of AKT1 Inhibitors for Acute Myeloid Leukemia” (Pharmaceutics, 2022).

System: AKT2
Set-up: method as in PMID 33995085
Settings: ref [51]; cited from earlier work

For CC(C)NC[C@@H](C(=O)N1CCN(c2ncnc3c2[C@H](C)C[C@H]3O)CC1)c1ccc(Cl)cc1 [ipatasertib], the IC50 is given as 18 nM.
